ChEMBL document CHEMBL5136978, “Research progress in pharmacological activities and structure-activity relationships of tetralone scaffolds as pharmacophore and fluorescent skeleton” (Eur J Med Chem, 2022)

The chains behind the UniProt entries cited, without tags or fusion partners.
UniProt P27338, whole entry: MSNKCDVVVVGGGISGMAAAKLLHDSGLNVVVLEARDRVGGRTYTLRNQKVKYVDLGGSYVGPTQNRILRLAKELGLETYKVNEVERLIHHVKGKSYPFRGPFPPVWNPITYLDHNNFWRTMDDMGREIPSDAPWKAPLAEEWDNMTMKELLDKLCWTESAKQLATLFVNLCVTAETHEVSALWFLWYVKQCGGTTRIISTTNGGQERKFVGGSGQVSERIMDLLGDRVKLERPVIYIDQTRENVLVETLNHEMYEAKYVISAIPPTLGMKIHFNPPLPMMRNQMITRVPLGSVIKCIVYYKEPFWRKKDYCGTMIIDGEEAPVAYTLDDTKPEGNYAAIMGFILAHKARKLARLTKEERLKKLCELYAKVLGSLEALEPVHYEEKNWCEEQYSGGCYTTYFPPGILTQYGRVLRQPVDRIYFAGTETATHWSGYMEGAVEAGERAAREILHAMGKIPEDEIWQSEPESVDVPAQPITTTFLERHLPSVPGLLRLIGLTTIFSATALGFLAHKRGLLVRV

Molecular target: Amine oxidase [flavin-containing] B (Homo sapiens, UniProt P27338)
Assay: Inhibition of recombinant human MAO-B assessed as measuring amount of 4-hydroxyquinoline using kynuramine as substrate incubated for 20 mins by fluorescence spectrophotometry

O=C1CCCc2ccc(OCc3ccc(Cl)cc3)cc21
IC50: 1.1 nM
